From patent US20190111158A1, “INJECTION COMPOSITION FOR LABELING LESION” (NATIONAL CANCER CENTER, priority 2016, published 2019)
Several values for one entry are separate records, joined by “and”; a condition that tells them apart may be missing. Equal values may be shown once. Entries after “also recorded” stand apart in the source; their conditions may differ.

How the values were obtained:
[1] = bright-field image of MAA particle distribution with/without HA; format: physicochemical; conditions: 6.5 μM ICG, 2, 4 and 8 mg/mL MAA; ICG-MAA no HA, ICG-MAA-HA 0.5% HA (w/v)
Method: An MAA particle distribution was visualized using an optical microscope with a hemocytometer. Each square represents a size of 0.05 mm^2. […] The concentrations of MAA are as follows: FIGS. 4-1 and 4-4: 2 mg/mL; FIGS. 4-2 and 4-5: 4 mg/mL; and FIGS. 4-3 and 4-6: 8 mg/mL.

[2] = change in syringe pressure according to precipitation of ICG-MAA-HA-1 (26G needle); format: physicochemical; conditions: HA 0 %
Method: In Example 3-3, the pressure (A) applied to the syringe when the injection composition to which hyaluronic acid was added was injected immediately after the addition of HA and the pressure (B) applied to the syringe after the injection composition was allowed to stand for 120 minutes so that the composition settled were measured, and are listed in the following table.
In this case, the syringe equipped with a 26G needle was used to measure a gliding force of the syringe.
In addition, the unit of the gliding force is gf representing gravitational force (1 g=0.0098 N).

[3] = injection into chicken gizzard, NIRF imaging; conditions: ICG-MAA-HA 0.5% HA, ICG-MAA no HA
Method: (§1) Also, a difference in tissue strength was determined using a chicken breast having typical tissue strength and a chicken gizzard having compact tissue strength. 50 μL of each of ICG-MAA-HA and ICG-MAA was slowly injected 5 times into the chicken breast and chicken gizzard to a depth of 5 mm. An NIRF image was obtained by emitting light from 17 2 mA NIR LEDs having a peak wavelength of 740 nm. The image was photographed and visualized by AVT UniCam viewer software (Allied Vision Technologies) according to the following settings of a camera: Exposure time: 195 ms; Gain: 170; Target grayscale value: 125; and Brightness: 16. It took approximately 2 to 3 minutes to prepare and inject the injections. […] When it was difficult to inject the injection solutions, the syringe was shaken, and the injection solutions were again injected within a short time.

[4] = change in syringe pressure (gliding force) according to precipitation of ICG-MAA-HA-2; format: physicochemical
Method: Generally, a pressure applied to the syringe with a 26G needle according to the concentration of hyaluronic acid increased from approximately 20 gf (0.1% HA) to 70 gf (1.0% HA). The pressure applied to the syringe increased according to an injection composition other than hyaluronic acid in the injection. In one example, a force of approximately 15 gf was further applied when MAA was present at a concentration of 8 mg/mL.
Therefore, in Experimental Example 3-3, the pressures applied to the syringe when the injection composition to which hyaluronic acid was added was injected immediately after addition of hyaluronic acid and after the injection composition was allowed to stand for 120 minutes to allow the composition to settle were measured, and are listed in the following table.
For reference, in Table 6, (A) lists the pressures when the injection composition was injected immediately, and (B) lists the pressures at the start of injection after the injection composition was allowed to stand for 120 minutes. Also, (C) lists the pressures (forces exerted on a finger, i.e., gliding forces) at an intermediate point of injection after the injection composition was allowed to stand for 120 minutes.

[5] = injection into chicken breast, NIRF imaging; conditions: ICG-MAA-HA 0.5% HA, ICG-MAA no HA
Method: as §1
A region into which the ICG-MAA-HA was injected is indicated by a white circle on the bright-field image. The NIRF image was obtained by emitting light from the 17 2 mA NIR LEDs having a peak wavelength of 740 nm. The image was photographed and visualized by AVT UniCam viewer software (Allied Vision Technologies) according to the following settings of a camera: Exposure time: 195 ms; Gain: 170; Target grayscale value: 125; and Brightness: 16.

[6] = change in transmittance at 550 nm according to precipitation of ICG-MAA-HA; format: physicochemical; conditions: HA 0.0 %, MAA 2 mg/mL
Method: A change in optical density over time was measured for the injection composition prepared in Example 1. For reference, a change in optical density was measured for an injection composition including 2 mg/mL of MAA.
In addition, transmittance was obtained by measuring the transmittance of visible light using a UV spectrometer (TECAN. Infinite M200PRO).
More specifically, when transmittance was measured at the one quarter point of the height of a transparent container having a size of 1×1×3 cm^3, using a UV spectrometer, in a state in which the injection composition was loaded in the container, transmittance at 550 nm was measured.
In this case, T1 represents transmittance (%) at 550 nm when measured at the one quarter point of the height of a transparent container having a size of 1×1×3 cm^3 in a state in which the prepared injection composition is loaded in the transparent container, and T2 represents transmittance (%) at 550 nm when measured at the one quarter point of the height of a transparent container having a size of 1×1×3 cm^3 after being allowed to stand for 120 minutes in a state in which the prepared injection composition is loaded in the transparent container.

[7] = suspensibility maintenance time of ICG-MAA-HA injection solution according to HA concentration; format: physicochemical; conditions: HA solvent 0% (simple water for injection), MAA 2 mg/mL
Method: To evaluate the usefulness of ICG-MAA-HA as an injection composition, a suspensibility maintenance time of ICG-MAA-HA according to the concentration of HA was measured.
More specifically, the suspensibility maintenance time after preparation of the ICG-MAA-HA injection solution was measured, and the suspensibility maintenance time was measured according to an increasing concentration of HA. Here, the suspensibility defines a suspensibility maintenance time as a reference point of time when a settling region and a floating region are separated based on 20% transmittance of light with 500 nm.
More specifically, as the images of the ICG-MAA-HA injection thus prepared photographed after 30 minutes, FIG. 3(A) is an image of MAA to which 0.1% HA is added, and FIG. 3(B) is an image of MAA to which 0.5% HA is added.

[8] = density of ICG-MAA complex (density of distilled water including the complex, linear regression); format: physicochemical; conditions: for Density of distilled water including the ICG-MAA complex: room temperature
Method: The densities of the ICG-MAA complexes were measured.
Because the ICG-MAA complexes were present in the form actually used in an aqueous solution phase, it was difficult to directly measure the densities of the complexes without causing damage to the forms of biological materials, and the like. Therefore, the densities of the ICG-MAA complexes were measured indirectly with reference to a change in density according to concentration.
The density was measured using the prepared ICG-MAA complex including MMA at a concentration of 2 mg/mL and 6.5 μM ICG, and the ICG-MAA densities were measured using the ICG-MAA complexes at concentrations of 20 mg/mL to 200 mg/mL (2 to 20% (w/v), as follows.
More specifically, 20 mL of distilled water was poured into a transparent container at room temperature, and the aforementioned ICG-MAA complex was added thereto to measure a varying density of the distilled water including the ICG-MAA complex. In particular, the varying density according to the concentration of the ICG-MAA complex was measured.
Referring to Table 2, a linear regression equation was obtained through linear regression analysis, and the density when it reached 100% was measured by extrapolation (0.2757*100+1.0064=1.2821).

[9] = near-infrared fluorescence signal intensity of ICG-MAA complexes at various ICG/MAA mixing ratios; format: physicochemical; conditions: for near-infrared fluorescence signal intensity: MAA 11.5 mg/mL
[10] = constant concentration effect: sequential 100 μL injections into tubes, fluorescence signal; format: physicochemical; conditions: MAA 2 mg/mL, 1.5 μM ICG; ICG-MAA no HA, ICG-MAA-HA 0.1% (w/v) HA
[11] = fluorescence value of the ICG-MAA complex when injected; format: in vivo
Method: Meanwhile, because the concentrations of MAA and ICG were varied due to in vivo diffusion when MAA and ICG were injected in vivo, it was impossible to determine the exact concentrations of MAA and ICG at the time of injection. However, it was confirmed through experiments that the complexes had the highest fluorescence value when 6.5 μM ICG with respect to 2 mg/mL MAA was injected.

[12] = one quarter point of container height

ICG-MAA: complex in which indocyanine green is bound to macroaggregated albumin; injection composition without hyaluronic acid
MAA particle distribution in bright-field image (settling) [1]: all the MAA particles had settled
A: pressure applied to the syringe when injected immediately after the addition of HA [2]: 91 gf
B − A [2]: 309 gf
B: pressure applied to the syringe after standing for 120 minutes [2]: 400 gf
distribution of the labels in NIRF images [3]: the labels were not properly distributed
A: pressure when the injection composition was injected immediately ([4]; HA 0 %): 115 gf
C: pressure (gliding force) at an intermediate point of injection after standing for 120 minutes ([4]; HA 0 %): 120 gf and 110 gf
distribution of the labels in NIRF images [5]: the labels were properly distributed; also recorded: a small amount of the labels were injected
|T2 − T1| [6]: 10.12%
T1: transmittance at 550 nm [6, 12]: 77.76%
T2: transmittance at 550 nm after standing for 120 minutes [6, 12]: 87.88%
Suspensibility maintenance time [7]: Within 10 minutes
Density of distilled water including the ICG-MAA complex ([8]; ICG-MAA complex 2 % (w/v)): 1.0118 g/mL
Density of distilled water including the ICG-MAA complex ([8]; ICG-MAA complex 4 % (w/v)): 1.0177 g/mL
Density of distilled water including the ICG-MAA complex ([8]; ICG-MAA complex 6 % (w/v)): 1.0228 g/mL
Density of distilled water including the ICG-MAA complex ([8]; ICG-MAA complex 8 % (w/v)): 1.0283 g/mL
Density of distilled water including the ICG-MAA complex ([8]; ICG-MAA complex 10 % (w/v)): 1.0338 g/mL
Density of distilled water including the ICG-MAA complex ([8]; ICG-MAA complex 12 % (w/v)): 1.0395 g/mL
Density of distilled water including the ICG-MAA complex ([8]; ICG-MAA complex 20 % (w/v)): 1.0616 g/mL
settling of the complex dissolved in distilled water ([8]; checked after 20 minutes): a white suspension had settled on the bottom of the container
density of the ICG-MAA complex ([8]; extrapolation of the linear regression equation to 100%): 1.2821 g/mL
ICG concentration with the highest value of near-infrared fluorescence signal intensity ([9]; 11.5 mg/mL of MAA): 6.5 µM
near-infrared fluorescence signal intensity ([9]; ICG 3.9 (μN)): 931
near-infrared fluorescence signal intensity ([9]; ICG 6.5 (μN)): 979
near-infrared fluorescence signal intensity ([9]; ICG 9.0 (μN)): 942
near-infrared fluorescence signal intensity ([9]; ICG 12.9 (μN)): 915
near-infrared fluorescence signal intensity ([9]; ICG 25.8 (μN)): 563
near-infrared fluorescence signal intensity ([9]; ICG 38.7 (μN)): 366
near-infrared fluorescence signal intensity ([9]; ICG 64.5 (μN)): 244
near-infrared fluorescence signal intensity ([9]; ICG 77.4 (μN)): 182
near-infrared fluorescence signal intensity ([9]; ICG 103 (μN)): 94
near-infrared fluorescence signal intensity ([9]; ICG 258 (μN)): 60
near-infrared fluorescence signal intensity ([9]; ICG 516 (μN)): 20
near-infrared fluorescence signal intensity ([9]; ICG 774 (μN)): 9
near-infrared fluorescence signal intensity ([9]; ICG 1032 (μN)): 4
injection of the predetermined amount of ICG-MAA (fluorescence intensities of sequential 100 μL injections) [10]: the predetermined amount of ICG-MAA was not injected
ICG concentration with the highest fluorescence value when injected ([11]; with respect to 2 mg/mL MAA): 6.5 µM
ICG concentration with the highest fluorescence value when injected ([11]; with respect to 2 to 4 mg/mL MAA): 6.5 µM

MAA: proteinaceous particle of 10 to 50 μm prepared by heating human serum albumin so that it coagulates
force further applied to the syringe ([4]; MAA 8 mg/mL): approximately 15 gf
